Protein sequences, listed by entry. Tags and fused reporters are not part of them. Residues count along the entry.
UniProt P05106, 27-788 limits assumed: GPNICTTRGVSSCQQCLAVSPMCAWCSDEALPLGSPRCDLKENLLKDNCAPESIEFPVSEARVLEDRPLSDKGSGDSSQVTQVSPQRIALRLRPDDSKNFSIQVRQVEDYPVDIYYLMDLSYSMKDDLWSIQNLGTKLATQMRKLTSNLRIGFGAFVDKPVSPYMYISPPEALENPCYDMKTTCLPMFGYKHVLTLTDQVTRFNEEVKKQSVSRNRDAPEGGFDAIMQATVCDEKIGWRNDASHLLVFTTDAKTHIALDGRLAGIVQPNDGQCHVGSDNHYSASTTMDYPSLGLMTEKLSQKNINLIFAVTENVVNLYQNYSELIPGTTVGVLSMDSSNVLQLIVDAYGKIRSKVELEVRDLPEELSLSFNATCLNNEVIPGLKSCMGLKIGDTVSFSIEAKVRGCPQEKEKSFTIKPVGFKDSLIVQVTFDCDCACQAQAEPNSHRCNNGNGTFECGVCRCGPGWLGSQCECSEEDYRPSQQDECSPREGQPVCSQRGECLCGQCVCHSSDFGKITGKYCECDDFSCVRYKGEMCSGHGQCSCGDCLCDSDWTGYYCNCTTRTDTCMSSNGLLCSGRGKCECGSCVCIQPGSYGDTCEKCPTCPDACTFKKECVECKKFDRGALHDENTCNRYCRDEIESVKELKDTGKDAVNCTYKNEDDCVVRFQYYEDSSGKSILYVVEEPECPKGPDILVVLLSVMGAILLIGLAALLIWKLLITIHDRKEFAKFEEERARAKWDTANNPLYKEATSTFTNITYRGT
UniProt P08514, 32-887 limits assumed: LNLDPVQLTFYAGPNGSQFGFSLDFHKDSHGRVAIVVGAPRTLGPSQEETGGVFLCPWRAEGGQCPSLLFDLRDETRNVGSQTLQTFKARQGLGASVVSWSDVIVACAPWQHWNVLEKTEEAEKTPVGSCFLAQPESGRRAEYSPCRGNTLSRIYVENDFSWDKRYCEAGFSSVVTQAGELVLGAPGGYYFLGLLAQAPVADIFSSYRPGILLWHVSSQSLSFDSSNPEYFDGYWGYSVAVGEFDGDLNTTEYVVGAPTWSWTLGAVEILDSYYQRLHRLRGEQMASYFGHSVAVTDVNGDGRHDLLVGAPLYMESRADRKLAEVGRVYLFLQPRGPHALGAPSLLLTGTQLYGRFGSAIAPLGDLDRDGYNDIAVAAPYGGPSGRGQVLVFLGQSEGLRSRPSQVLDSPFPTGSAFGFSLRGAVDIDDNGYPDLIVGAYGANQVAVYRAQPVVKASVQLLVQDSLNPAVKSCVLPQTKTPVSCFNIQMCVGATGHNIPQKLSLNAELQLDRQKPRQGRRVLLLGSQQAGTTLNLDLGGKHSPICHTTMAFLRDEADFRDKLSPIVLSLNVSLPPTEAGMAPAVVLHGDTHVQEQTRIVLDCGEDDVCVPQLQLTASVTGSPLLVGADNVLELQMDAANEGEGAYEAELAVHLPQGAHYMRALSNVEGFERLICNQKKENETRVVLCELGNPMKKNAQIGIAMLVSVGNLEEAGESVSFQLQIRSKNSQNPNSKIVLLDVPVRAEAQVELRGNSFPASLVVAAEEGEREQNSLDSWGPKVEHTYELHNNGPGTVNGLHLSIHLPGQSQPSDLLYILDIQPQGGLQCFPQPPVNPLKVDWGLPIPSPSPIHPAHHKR
UniProt P08514, 891-1039 partner limits assumed: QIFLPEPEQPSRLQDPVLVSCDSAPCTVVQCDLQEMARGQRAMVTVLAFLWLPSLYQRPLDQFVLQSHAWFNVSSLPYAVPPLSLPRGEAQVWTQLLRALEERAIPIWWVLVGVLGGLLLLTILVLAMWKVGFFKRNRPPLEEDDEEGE
UniProt P06756, 31-889 limits assumed: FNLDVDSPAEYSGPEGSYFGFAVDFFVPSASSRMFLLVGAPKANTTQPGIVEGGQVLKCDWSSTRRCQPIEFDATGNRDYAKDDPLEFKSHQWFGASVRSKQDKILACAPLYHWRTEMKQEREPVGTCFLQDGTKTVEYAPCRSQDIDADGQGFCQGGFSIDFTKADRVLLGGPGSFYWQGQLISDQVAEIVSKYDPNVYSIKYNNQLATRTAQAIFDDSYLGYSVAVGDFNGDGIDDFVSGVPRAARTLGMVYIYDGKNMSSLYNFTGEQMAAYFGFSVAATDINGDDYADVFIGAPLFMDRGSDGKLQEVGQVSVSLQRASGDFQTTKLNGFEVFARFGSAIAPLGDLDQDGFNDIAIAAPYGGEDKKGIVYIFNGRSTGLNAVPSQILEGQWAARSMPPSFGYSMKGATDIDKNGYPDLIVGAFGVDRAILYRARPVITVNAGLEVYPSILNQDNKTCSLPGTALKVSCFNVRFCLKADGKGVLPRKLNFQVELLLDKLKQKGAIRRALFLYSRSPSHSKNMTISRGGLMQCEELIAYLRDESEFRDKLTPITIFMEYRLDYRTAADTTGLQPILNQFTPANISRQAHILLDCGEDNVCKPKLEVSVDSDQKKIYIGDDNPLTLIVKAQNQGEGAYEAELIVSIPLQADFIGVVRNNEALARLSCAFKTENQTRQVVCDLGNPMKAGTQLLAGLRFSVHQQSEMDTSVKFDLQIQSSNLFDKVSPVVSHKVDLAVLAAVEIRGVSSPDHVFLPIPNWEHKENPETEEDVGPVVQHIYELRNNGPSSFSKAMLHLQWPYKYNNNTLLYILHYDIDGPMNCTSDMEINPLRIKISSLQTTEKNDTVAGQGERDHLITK
UniProt P06756, 891-1048 partner limits assumed: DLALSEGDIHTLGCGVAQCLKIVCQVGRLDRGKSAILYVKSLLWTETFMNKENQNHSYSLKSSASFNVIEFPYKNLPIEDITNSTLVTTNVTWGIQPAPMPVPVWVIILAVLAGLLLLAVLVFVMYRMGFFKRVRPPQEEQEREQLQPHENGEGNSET

According to patent US6552079B2, “Integrin antagonists” (Eli Lilly and Company, priority 1996, dated 2003):

Assays:
[1] = target: GPIIb-IIIa (Homo sapiens, UniProt P05106+P08514); test: GPIIb-IIIa ELISA purified integrin binding assay (fibrinogen binding); conditions: read-out: GPIIbIIIa ELISA (IC50 μM); inhibition of biotinylated fibrinogen binding to immobilized purified platelet GPIIb-IIIa
Procedure: (§1) In the following assays, GPIIb-IIIa and vitronectin receptor, αvβ3 were prepared in purified form, by methods described in Fitzgerald, L. A., et al., Anal Biochem (1985) 151: 169-177 and Smith, J. W., J. Biol Chem (1988) 263: 18726-18731 (the disclosure of which is incorporated herein by reference). GPIIb-IIIa or vitronectin receptor, αvβ3, are coated onto microtiter plates. The coated support is then contacted with fibrinogen for the GPIIb-IIIa assay, or is contacted with vitronectin for the vitronectin receptor, αvβ3 and with test materials and incubated for sufficient time to reach maximal ligand binding to immobilized integrins. The adhesive ligands fibrinogen or vitronectin were typically provided at a concentration of 2-50 nM and the test material can, if desired, be added at a series of diultions. Typical incubations were 2-4 hr at 25° C., the time and temperature being interdependent.
(§2) Purified platelet GPIIb-IIIa was prepared by Fitzgerald, L. A., et al., Anal Biochem 151:169-177 (1985). Vitronectin receptor, αvβ3, was prepared as described by Smith, J. W., J. Biol Chem (1988) 263: 18726-18731. After purification, the receptors were each stored in 0.1% Triton X-100 at 0.1-1.0 mg/ml.
(§3) The receptors were coated to the wells of 96-well flat-bottom enzyme-linked immunoassay (ELISA) plates (Linbro EIA-Plus microtiter plate, Flow Laboratories) after diluting 1:200 with a solution of 20 mM Tris-HCl, 150 mM NaCl, 1 mM CaCl2, pH 7.4 to reduce the Triton X-100 concentration to below its critical micellar concentration and adding an aliquot of 100 μl to each well. The wells were allowed to incubate overnight at 4° C., and then aspirated to dryness. Additional sites were blocked by the addition of bovine serum albumin (BSA) at 35 mg/ml in the above buffer for 2 hr at 30° C. to prevent non-specific binding. The wells were then washed once with binding buffer ([…] Tris-HCl, 100 mM NaCl, 2 mM CaCl2, 1 mg/ml BSA).
(§4) The corresponding ligands (fibrinogen, von Willebrand Factor, or vitronectin) were conjugated to biotin using commercially available reagents and standard protocols. The labeled ligands were added to the receptor-coated wells at a final concentration of 2-10 nM (100 μl/well) and incubated for 3 hr at 25° C. in the presence or absence of test samples. After incubation, the wells were aspirated to dryness and bound ligand containing biotin label was quantitated.
(§5) The bound protein was detected by the addition of anti-biotin antibody conjugated to alkaline phosphatase followed by addition of substrate (p-nitrophenyl […] phosphate), and determination of the optical density of each well at […].

[2] = system: ADP-induced aggregation of human platelets (PRP); test: Platelet aggregation assay (Aggregation-Human/PRP/ADP); conditions: read-out: PRP (IC50 μM); human platelet rich plasma, ADP 20 μM
Procedure: In addition to the ELISA integrin binding assays described above, the Aggregation-Human/PRP/ADP Assay is useful for evaluating therapeutic compounds.
Platelet rich plasma (PRP) is prepared from healthy human volunteers for use in determining inhibition of platelet aggregation by compounds. Blood was collected via a 21 gauge butterfly cannula, using a two-syringe technique into 1/10 volume of […] trisodium citrate.
Platelet rich plasma was prepared at room temperature by centrifugation of the citrated whole blood at 100×g for 15 minutes. The PRP contained approximately 200-400,000 platelets/μl. Platelet poor plasma was prepared by centrifugation of citrated whole blood at 12,000×g for 2 minutes.
Platelet aggregation was assayed in a Chrono-log whole blood aggregometer (Chrono-log Corporation, Havertown, Pa.) using the PRP prepared above according to the manufacturers directions. Inhibition of platelet aggregation was studied by adding varying amounts of test materials followed by adenosine diphosphate (ADP, 20 μM) to stirred human PRP. Specifically, the human PRP was incubated with the compound for 1-2 min. at 37° C. prior to addition of the aggregating agent ADP.

[3] = target: vitronectin receptor, αvβ3 (Homo sapiens, UniProt P05106+P06756); test: αvβ3 ELISA purified integrin binding assay (vitronectin binding); conditions: read-out: αvβ3 ELISA (IC50 μM); inhibition of biotinylated vitronectin binding to immobilized purified αvβ3
Procedure: as §1, §2, §3, §4, §5

SMILES | IC50 [1] | IC50 [2] | IC50 [3]
CCCCS(=O)(=O)NC(CNC(=O)CCNC(=O)CNC(=N)N)C(=O)O (stereo not drawn) | > 100 µM | 120 µM | > 200 µM
N=C(N)NCCCCCCCC(=O)NCC(NS(=O)(=O)Cc1ccccc1)C(=O)O (stereo not drawn) | 0.6 µM | 5.7 µM | 3 µM
N=C(N)NCCC(=O)N1CCC(C(=O)NCC(NS(=O)(=O)c2ccccc2)C(=O)O)CC1 (stereo not drawn) | 2.5 µM | 3.3 µM | 0.5 µM
Cc1ccc(S(=O)(=O)NC(CNC(=O)CCCCCCCNC(=N)N)C(=O)O)cc1 (stereo not drawn) | 0.1 µM | 0.85 µM | 0.2 µM
N=C(N)NCCCC(=O)N1CCC(C(=O)NCC(NS(=O)(=O)c2ccccc2)C(=O)O)CC1 (stereo not drawn) | 2.5 µM | 1 µM | 5 µM
CCCCS(=O)(=O)NC(CNC(=O)CCNC(=O)CCCCNC(=N)N)C(=O)O (stereo not drawn) | 1 µM | 4.9 µM | 50 µM
O=C(CCNC(=O)C1CCNCC1)NCC(NS(=O)(=O)c1ccccc1)C(=O)O (stereo not drawn) | 0.1 µM | 1.1 µM | > 100 µM
N=C(N)NCCCCCCCC(=O)NCC(NS(=O)(=O)c1ccccc1)C(=O)O (stereo not drawn) | 0.02 µM | 0.17 µM | 0.1 µM
N=C(N)NCCCC(=O)NCCC(=O)NCC(NS(=O)(=O)c1ccccc1)C(=O)O (stereo not drawn) | 0.1 µM | 0.26 µM | 0.3 µM
CCCCS(=O)(=O)NC(CNC(=O)CCNC(=O)CCNC(=N)N)C(=O)O (stereo not drawn) | 50 µM | 67.1 µM | > 100 µM
